What was measured:
PpAChE1 [1] = biological target: T1, PpAChE1 (Pardosa pseudoannulata, UniProt V5QQC6); assay: Inhibition of recombinant PpAChE1 enzyme activity (IC50, ki)
PpAChE2 [2] = biological target: T2, PpAChE2 (Pardosa pseudoannulata, UniProt A0A1B1FIZ1); assay: Inhibition of recombinant PpAChE2 enzyme activity (IC50, ki)
PpAChE3 [3] = biological target: T3, PpAChE3 (Pardosa pseudoannulata, UniProt A0A1B1FIW0); assay: Inhibition of recombinant PpAChE3 enzyme activity (IC50, ki)
PpAChE4 [4] = biological target: T4, PpAChE4 (Pardosa pseudoannulata, UniProt A0A1B1FIW2); assay: Inhibition of recombinant PpAChE4 enzyme activity (IC50, ki); details: for Inhibition kinetics (ki), bimolecular rate constant: ATC hydrolysis
PpAChE1 [5] = biological target: T1, PpAChE1; assay: Kinetics of substrate hydrolysis by recombinant PpAChE1; details: for Vmax ratio vs PTC: Vmax of labelled substrate divided by Vmax of PTC; for Vmax: optimal pH 7.0
PpAChE2 [6] = biological target: T2, PpAChE2; assay: Kinetics of substrate hydrolysis by recombinant PpAChE2; details: for Vmax ratio vs PTC: Vmax of labelled substrate divided by Vmax of PTC
PpAChE3 [7] = biological target: T3, PpAChE3; assay: Kinetics of substrate hydrolysis by recombinant PpAChE3; details: for Vmax ratio vs PTC: Vmax of labelled substrate divided by Vmax of PTC
PpAChE4 [8] = biological target: T4, PpAChE4; assay: Kinetics of substrate hydrolysis by recombinant PpAChE4; details: for Vmax ratio vs PTC: Vmax of labelled substrate divided by Vmax of PTC; for Vmax: optimal pH 7.5
[9] = Vmax of labelled substrate divided by Vmax of BTC
[10] = ATC hydrolysis, not completely inhibited even at very high concentrations

Chains of the proteins cited; added tags and fusions are not shown. Residues count along the entry.
UniProt V5QQC6, 26-608 limits assumed: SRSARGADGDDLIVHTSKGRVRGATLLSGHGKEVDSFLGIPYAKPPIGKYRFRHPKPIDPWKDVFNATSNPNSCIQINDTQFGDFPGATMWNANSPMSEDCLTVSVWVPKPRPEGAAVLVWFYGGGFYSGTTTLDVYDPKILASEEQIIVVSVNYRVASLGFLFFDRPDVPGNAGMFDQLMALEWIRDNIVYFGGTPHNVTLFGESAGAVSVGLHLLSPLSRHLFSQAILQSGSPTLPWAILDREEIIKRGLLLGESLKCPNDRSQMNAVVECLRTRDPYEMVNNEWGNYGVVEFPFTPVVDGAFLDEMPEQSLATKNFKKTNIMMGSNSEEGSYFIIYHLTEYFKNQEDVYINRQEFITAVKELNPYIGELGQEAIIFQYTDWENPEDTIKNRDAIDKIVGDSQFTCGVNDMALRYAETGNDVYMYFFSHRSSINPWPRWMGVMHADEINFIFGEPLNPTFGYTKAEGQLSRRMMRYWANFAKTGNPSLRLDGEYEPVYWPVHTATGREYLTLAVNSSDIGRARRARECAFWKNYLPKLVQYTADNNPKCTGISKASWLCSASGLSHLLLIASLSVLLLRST
UniProt A0A1B1FIZ1, 28-554 limits assumed: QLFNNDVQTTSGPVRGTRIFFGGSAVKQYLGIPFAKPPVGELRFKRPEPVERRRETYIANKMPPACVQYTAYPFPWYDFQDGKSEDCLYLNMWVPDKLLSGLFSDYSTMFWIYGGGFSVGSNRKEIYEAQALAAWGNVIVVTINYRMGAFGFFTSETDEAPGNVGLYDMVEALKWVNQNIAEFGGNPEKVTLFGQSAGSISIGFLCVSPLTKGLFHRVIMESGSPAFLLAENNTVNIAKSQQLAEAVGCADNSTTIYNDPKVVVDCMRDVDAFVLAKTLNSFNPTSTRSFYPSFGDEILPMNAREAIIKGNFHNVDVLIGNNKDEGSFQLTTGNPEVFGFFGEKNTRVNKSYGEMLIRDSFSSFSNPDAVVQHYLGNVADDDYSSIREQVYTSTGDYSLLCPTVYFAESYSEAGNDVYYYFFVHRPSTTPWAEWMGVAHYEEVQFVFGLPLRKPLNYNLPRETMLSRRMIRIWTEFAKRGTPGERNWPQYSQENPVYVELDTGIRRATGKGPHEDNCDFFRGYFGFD
UniProt A0A1B1FIW0, 21-541 limits assumed: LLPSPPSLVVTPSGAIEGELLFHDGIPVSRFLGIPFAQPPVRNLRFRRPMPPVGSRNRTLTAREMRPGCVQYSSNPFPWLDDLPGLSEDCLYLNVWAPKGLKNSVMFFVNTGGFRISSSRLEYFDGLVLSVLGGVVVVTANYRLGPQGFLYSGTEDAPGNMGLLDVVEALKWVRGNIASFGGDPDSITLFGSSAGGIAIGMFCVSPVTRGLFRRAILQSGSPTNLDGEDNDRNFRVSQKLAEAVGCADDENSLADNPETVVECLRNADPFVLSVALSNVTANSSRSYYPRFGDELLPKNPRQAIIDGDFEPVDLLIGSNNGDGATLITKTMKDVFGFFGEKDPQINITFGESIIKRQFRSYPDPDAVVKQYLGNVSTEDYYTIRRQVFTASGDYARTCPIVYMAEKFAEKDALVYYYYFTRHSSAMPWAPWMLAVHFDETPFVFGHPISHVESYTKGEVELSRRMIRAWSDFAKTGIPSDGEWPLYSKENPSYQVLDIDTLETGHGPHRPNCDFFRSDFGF
UniProt A0A1B1FIW2, 23-545 limits assumed: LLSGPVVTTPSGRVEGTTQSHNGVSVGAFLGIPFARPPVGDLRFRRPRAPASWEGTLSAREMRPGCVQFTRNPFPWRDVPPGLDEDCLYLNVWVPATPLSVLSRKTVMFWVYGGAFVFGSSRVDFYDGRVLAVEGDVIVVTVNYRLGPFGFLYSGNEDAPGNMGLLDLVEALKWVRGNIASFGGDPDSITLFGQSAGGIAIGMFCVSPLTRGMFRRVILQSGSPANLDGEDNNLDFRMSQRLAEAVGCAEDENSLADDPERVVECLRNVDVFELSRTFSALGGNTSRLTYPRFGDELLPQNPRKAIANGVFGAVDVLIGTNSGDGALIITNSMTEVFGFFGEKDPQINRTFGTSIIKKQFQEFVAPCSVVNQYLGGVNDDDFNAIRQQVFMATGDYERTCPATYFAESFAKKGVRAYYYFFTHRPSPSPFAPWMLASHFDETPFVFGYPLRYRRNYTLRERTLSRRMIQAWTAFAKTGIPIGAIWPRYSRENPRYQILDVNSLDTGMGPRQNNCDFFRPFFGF

Structure (SMILES)	Inhibition kinetics (ki), bimolecular rate constant (PpAChE1 [1]; ATC hydrolysis)	Inhibition kinetics (ki), bimolecular rate constant (PpAChE2 [2]; ATC hydrolysis)	Inhibition kinetics (ki), bimolecular rate constant (PpAChE3 [3]; PpAChE3, ATC hydrolysis)	Inhibition kinetics (ki), bimolecular rate constant (PpAChE4 [4]; PpAChE4)	Vmax (PpAChE1 [5])	Vmax (PpAChE2 [6]; optimal pH 7.0) [a nmol/mg•min]	Vmax (PpAChE3 [7]; optimal pH 8.0)	Vmax (PpAChE4 [8])	further results
CCC(C)c1ccccc1OC(=O)NC (centres unmarked)	14.69±0.89a ×10^−6 M^-1 min^-1	0.30±0.05d ×10^−6 M^-1 min^-1	2.43±0.52c ×10^−6 M^-1 min^-1	3.16±0.27b ×10^−6 M^-1 min^-1					
CCCC(=O)SCC[N+](C)(C)C					95.4±12.8b nmol/mg•min	233.9±16.5	40.3±5.6c nmol/mg•min	105.5±8.9b nmol/mg•min	Vmax ratio vs PTC (PpAChE1 [5]): 1.25; Vmax ratio vs PTC (PpAChE2 [6]): 1.49; Vmax ratio vs PTC (PpAChE3 [7]): 0.38; Vmax ratio vs PTC (PpAChE4 [8]): 2.12
CCC(=O)SCC[N+](C)(C)C					76.2±9.2c nmol/mg•min	156.8±21.3	106.2±15.1b nmol/mg•min	49.7±8.4d nmol/mg•min	Km (PpAChE2 [6]; optimal pH 7.0): 4500 µM; Km (PpAChE3 [7]; optimal pH 8.0): 504 µM
CC(=O)SCC[N+](C)(C)C					112.6±8.8b nmol/mg•min	253.9±20.4	124.7±11.5b nmol/mg•min	86.6±9.7c nmol/mg•min	Vmax ratio vs BTC (PpAChE1 [5]; [9]): 1.18; Vmax ratio vs PTC (PpAChE1 [5]): 1.48; Vmax ratio vs BTC (PpAChE2 [6]; [9]): 1.09; Vmax ratio vs PTC (PpAChE2 [6]): 1.62; Vmax^ATC/Vmax^BTC ratio (PpAChE3 [7]; ATC vs BTC): 3.1 fold; Vmax ratio vs BTC (PpAChE3 [7]; [9]): 3.09; Vmax ratio vs PTC (PpAChE3 [7]): 1.17; Vmax ratio vs BTC (PpAChE4 [8]; [9]): 0.82; Vmax ratio vs PTC (PpAChE4 [8]): 1.74
CCOP(=O)(OCC)Oc1cc(C)nc(C(C)C)n1	0.13±0.05c ×10^−6 M^-1 min^-1	0.08±0.03c ×10^−6 M^-1 min^-1	3.55±0.32a ×10^−6 M^-1 min^-1	1.13±0.18b ×10^−6 M^-1 min^-1					
CC(C)NP(=O)(NC(C)C)OP(=O)(NC(C)C)NC(C)C									Inhibition against ATC hydrolysis (in words) (PpAChE1 [1]; [10]): very weak inhibition; Inhibition against ATC hydrolysis (in words) (PpAChE2 [2]; [10]): very weak inhibition; IC50 (PpAChE2 [2]; read-out: IC50 value, BTC hydrolysis activity, BTC hydrolysis): < 100 µM; Inhibition against ATC hydrolysis (in words) (PpAChE3 [3]; PpAChE3, ATC hydrolysis, not completely inhibited even at very high concentrations): very weak inhibition; IC50 (PpAChE3 [3]; read-out: IC50 on BTC hydrolysis, PpAChE3 expressed in Sf9 cells, BTC hydrolysis, 10 min incubation with inhibitor): > 200 µM; IC50 (PpAChE4 [4]; read-out: IC50 on BTC hydrolysis, PpAChE4 expressed in Sf9 cells, BTC hydrolysis, 10 min incubation with inhibitor): > 200 µM
CCOP(=O)(OCC)Oc1ccc([N+](=O)[O-])cc1	0.43±0.06c ×10^−6 M^-1 min^-1	0.13±0.03d ×10^−6 M^-1 min^-1	8.01±1.13a ×10^−6 M^-1 min^-1	0.95±0.14b ×10^−6 M^-1 min^-1					
C=CC[N+](C)(C)c1ccc(CCC(=O)CCc2ccc([N+](C)(C)CC=C)cc2)cc1									Difference in IC50 value between BW284C51 (ATC hydrolysis) and ISO-OMPA (BTC hydrolysis) (PpAChE1 [1]; more sensitive to BW284C51): ≥ 8.5 fold; Difference in IC50 value between BW284C51 (ATC hydrolysis) and ISO-OMPA (BTC hydrolysis) (PpAChE2 [2]; more sensitive to BW284C51): ≥ 8.5 fold; Difference in IC50 value between BW284C51 (ATC hydrolysis) and ISO-OMPA (BTC hydrolysis) (PpAChE3 [3]; PpAChE3, more sensitive to BW284C51): ≥ 8.5 fold; Difference in IC50 value between BW284C51 (ATC hydrolysis) and ISO-OMPA (BTC hydrolysis) (PpAChE4 [4]; PpAChE4, more sensitive to BW284C51): ≥ 8.5 fold
CNC(=O)Oc1cccc2ccccc12	1.13±0.05c ×10^−6 M^-1 min^-1	0.12±0.03d ×10^−6 M^-1 min^-1	3.62±0.44b ×10^−6 M^-1 min^-1	5.88±0.92a ×10^−6 M^-1 min^-1					
